“And” between values parts separate entries of the source, which are not always exact repeats. Identical values can stand only once. Only a part is listed here, and it is no random draw. Results filed as inconclusive are left out. Where a call stands in place of a potency, no number is given. The source made the active and inactive calls. Calls follow the shape of the dose curve; as a rule, active = well fitted cell-killing curve with a large enough effect in the repeat runs; inconclusive = weak or mixed curves, or effect the other way; inactive = no such curve, though single readings can be large or run the other way.
test: qHTS assay to identify small molecule antagonists of the glucocorticoid receptor (GR) signaling pathway - cell viability counter screen (AID 720693); settings: GR-bla HeLa viability, CellTiter-Glo luminescence, 18 h, with 5 nM dexamethasone present; series mostly up to 58.5 µM; also: nearly all actives have a fitted effect of over 55% in size
From the text: National Center for Advancing Translational Sciences [NCATS]
NIH Chemical Genomics Center [NCGC]
U.S. Environmental Protection Agency [EPA]
National Institutes of Environmental Health Sciences [NIEHS]
National Toxicology Program [NTP]
U.S. Food and Drug Administration [FDA]
The Glucocorticoid receptor (GR) is one of the members of the nuclear receptor family of ligand-dependent transcription factors. GR plays a critical role in carbohydrate, protein and lipid metabolisms and programmed cell death. CellSensor GR-bla HeLa cell line (Invitrogen) contains a beta-lactamase reporter gene under the control of the glucocorticoid response element stably integrated into HeLa cells, a cervical cancer cell line that expresses glucocorticoid receptor. The activation of the reporter gene under culture conditions can be detected by fluorescence intensity. This cell line has been used to screen the Tox21 10K compound library and to identify the compounds that inhibit the GR signaling. The cytotoxicity of the Tox21 compound library against the GR-bla HeLa cell line was tested in parallel by measuring the cell viability using CellTiter-Glo assay in the same wells.
Tox21 Assay Protocol Summary:
The GR-bla HeLa cells were dispensed at 1500 cells/5 ul/well in 1536-well black wall/clear bottom plates using a Multidrop Combi (ThermoFisher Scientific, Waltham, MA) dispenser. After the assay plates were incubated at a 37 C/5% CO2 incubator for 4 hours, 23 nL of compounds dissolved in DMSO, positive controls or DMSO only was transferred to the assay plate by a pintool station (Kalypsys, San Diego, CA), followed by addition of 1 uL of dexamethasone (5 nM, final concentration in the well). The plates were incubated at 37 C for 18 hours. After 1 uL of LiveBLAzerTM B/G FRET substrate was added using a Flying Reagent Dispenser (Aurora Discovery, San Diego, CA), the plates were incubated at room temperature (RT) for 2 hours, and fluorescence intensity was measured by an Envision plate reader (PerkinElmer, Shelton, CT). After measurement of bla assay, 3 ul CellTiter-Glo (Promega, Madison, WI) was added to measure the cytotoxicity and the plates were then incubated at RT for 30 min. The luminescence was measured using a ViewLux (Perkin Elmer) plate reader.
Potency is read from the fitted curve at half-maximal effect.

| SMILES | Potency |
| --- | --- |
| CC(C)CCCCCCCOP(OCCCCCCCC(C)C)Oc1ccccc1 | inactive |
| CN(C(=O)Cc1ccccc1)[C@H]1CC[C@@]2(CCCO2)C[C@@H]1N1CCCC1 | inactive |
| O=[P+](Oc1ccccc1)Oc1ccccc1 | inactive |
| CCOC(=O)Cl | inactive |
| CCOP(=S)(CC)Sc1ccccc1 (stereo not drawn) | inactive |
| COC(=O)Cl | inactive |
| COP(=S)(Cl)OC | inactive |
| CCCCC(CC)CO[P+](=O)OCC(CC)CCCC (stereo not drawn) | inactive |
| O=C(OC1CN2CCC1CC2)c1ccccc1 (stereo not drawn) | inactive |
| O=P(Cl)(Oc1ccccc1)Oc1ccccc1 | inactive |
| CN(C(=O)Cc1cccc2occc12)[C@H]1CC[C@@]2(CCCO2)C[C@@H]1N1CCCC1 | inactive |
| CC(C)OP(=S)(OC(C)C)SCCNS(=O)(=O)c1ccccc1 | inactive |
| O=[As]c1ccccc1 (stereo not drawn) | active: 4.9 µM |
| CN(N=O)C(=N)N[N+](=O)[O-] | inactive |
| O=P(Cl)(Cl)c1ccccc1 | inactive |
| O=C1C2CC=CCC2C(=O)N1SC(Cl)(Cl)C(Cl)Cl (stereo not drawn) | active: 11 µM and active: 3.89 µM |
| Cc1cc([N+](=O)[O-])c(O)c([N+](=O)[O-])c1 | inactive |
| O=[p+]1oc2ccccc2c2ccccc21 (stereo not drawn) | inactive |
| CCCCO[P+](=O)OCCCC | inactive |
| CCNC(C)Cc1ccc2c(c1)OCO2 (stereo not drawn) | inactive |
| O=[N+]([O-])c1ccc(S(=O)(=O)O)c([N+](=O)[O-])c1 | inactive |
| NC(=O)Nc1ccc([As](=O)(O)O)cc1 | inactive |
| ClP(Cl)c1ccccc1 | inactive |

Reference: PubChem BioAssay (Tox21)
